[ ]: non-standard residue; d: D form. The star is where a group is joined. FITC = O=C1OC2(c3ccc(O)cc3Oc3cc(O)ccc32)c2ccc(NC(=S)*)cc21; pT = C[C@@H](OP(=O)(O)O)[C@H](N)C(=O)O; Ahx = NCCCCCC(=O)O Some results are limits rather than exact numbers.

In this test the target is T1, FITC-Ahx-DPPLHSpTAI-NH2 (SMILES …).
T1 construct: also called FITC-conjugated phosphopeptide; FITC-conjugated ligand
T1 peptide: {FITC-Ahx}-DPPLHS[pT]AI-NH2
In words: fluorescence polarisation; direct binding: FITC-Ahx-DPPLHSpTAI-NH2 with different concentrations of recombinant PBD1 WT or mutants. The following applies: both partners purified. Background: Polarisation of emitted light reports the rotation of a fluorescent probe.

B1: PBD1 (residues 345–603) F559D (domain or fragment, human, UniProt P53350 345-603, looked up)
chain: KGLENPLPERPREKEEPVVRETGEVVDCHLSDMLQQLHSVNASKPSERGLVRQEEAEDPACIPIFWVSKWVDYSDKYGLGYQLCDNSVGVLFNDSTRLILYNDGDSLQYIERDGTESYLTVSSHPNSLMKKITLLKYFRNYMSEHLLKAGANITPREGDELARLPYLRTWFRTRSAIILHLSNGSVQINFFQDHTKLILCPLMAAVTYIDEKRDDRTYRLSLLEEYGCCKELASRLRYARTMVDKLLSSRSASNRLKAS
notes: Polo-like kinase 1 (Plk1), polo-box domain, residues 345-603, F559D; also called F559D mutant protein; source: E. coli (purified as described for the crystallography construct, Rosetta strain)
Take B1: the “fold decrease of affinity against WT” value was found to be 1.7 fold.

B2: PBD1 (residues 345–603) F559E (domain or fragment, human, UniProt P53350 345-603, looked up)
chain: KGLENPLPERPREKEEPVVRETGEVVDCHLSDMLQQLHSVNASKPSERGLVRQEEAEDPACIPIFWVSKWVDYSDKYGLGYQLCDNSVGVLFNDSTRLILYNDGDSLQYIERDGTESYLTVSSHPNSLMKKITLLKYFRNYMSEHLLKAGANITPREGDELARLPYLRTWFRTRSAIILHLSNGSVQINFFQDHTKLILCPLMAAVTYIDEKRDERTYRLSLLEEYGCCKELASRLRYARTMVDKLLSSRSASNRLKAS
notes: Polo-like kinase 1 (Plk1), polo-box domain, residues 345-603, F559E; also called F559E mutant; source: E. coli (purified as described for the crystallography construct, Rosetta strain)
B2: the “fold decrease of affinity against WT” value was about 7 fold.

B3: PBD1 (residues 345–603) F559R (domain or fragment, human, UniProt P53350 345-603, looked up)
chain: KGLENPLPERPREKEEPVVRETGEVVDCHLSDMLQQLHSVNASKPSERGLVRQEEAEDPACIPIFWVSKWVDYSDKYGLGYQLCDNSVGVLFNDSTRLILYNDGDSLQYIERDGTESYLTVSSHPNSLMKKITLLKYFRNYMSEHLLKAGANITPREGDELARLPYLRTWFRTRSAIILHLSNGSVQINFFQDHTKLILCPLMAAVTYIDEKRDRRTYRLSLLEEYGCCKELASRLRYARTMVDKLLSSRSASNRLKAS
notes: Polo-like kinase 1 (Plk1), polo-box domain, residues 345-603, F559R; also called F559R mutant; source: E. coli (purified as described for the crystallography construct, Rosetta strain)
As to B3, the “fold decrease of affinity against WT” value was over 42 fold.

B4: PBD1 (residues 345–603) F559K (domain or fragment, human, UniProt P53350 345-603, looked up)
chain: KGLENPLPERPREKEEPVVRETGEVVDCHLSDMLQQLHSVNASKPSERGLVRQEEAEDPACIPIFWVSKWVDYSDKYGLGYQLCDNSVGVLFNDSTRLILYNDGDSLQYIERDGTESYLTVSSHPNSLMKKITLLKYFRNYMSEHLLKAGANITPREGDELARLPYLRTWFRTRSAIILHLSNGSVQINFFQDHTKLILCPLMAAVTYIDEKRDKRTYRLSLLEEYGCCKELASRLRYARTMVDKLLSSRSASNRLKAS
notes: Polo-like kinase 1 (Plk1), polo-box domain, residues 345-603, F559K; also called F559K mutant; source: E. coli (purified as described for the crystallography construct, Rosetta strain)
Regarding B4, the “fold decrease of affinity against WT” value was over 27 fold.
